# In publication PMC5041076, “Ilex kaushue and Its Bioactive Component 3,5-Dicaffeoylquinic Acid Protected Mice from Lipopolysaccharide-Induced Acute Lung Injury” (Scientific Reports, 2016):
# What was measured:
# Bovine chymotrypsin = Bovine chymotrypsin (Bos taurus, UniProt P00766); experiment: Serine protease enzyme inhibition assay, chymotrypsin; type: biochemical; conditions: read-out: IC50 Chymotrypsin, mean ± S.E.M. (n ≥ 3)
# [1] = system: fMLF/CB-activated neutrophils; experiment: O2.- generation in fMLF/CB-activated neutrophils (ferricytochrome c reduction); conditions: read-out: IC50 O2^.− generation; fMLF/CB-activated human neutrophils
# [2] = system: fMLF/CB-activated neutrophils; experiment: Elastase release in fMLF/CB-activated neutrophils; conditions: read-out: IC50 HNE (NE activity / elastase release); fMLF/CB-activated human neutrophils
structure (smiles),measurement,setting,value
N#C/C=C1/CCC(O)CC1O[C@@H]1O[C@H](CO)[C@@H](O)[C@H](O)[C@H]1O (stereo partly drawn),IC50,Bovine chymotrypsin,> 30 µM
same,IC50,[1],> 10 µM
same,IC50,[2],> 10 µM
